From patent US9732093B2, “FLAP modulators” (JANSSEN PHARMACEUTICA NV, priority 2013, dated 2017)
Read-outs that look alike come from different tables or passages of the source.

Protein sequences, listed by entry. Tags and fused reporters are not part of them. Lines headed by an entry give the natural chain unless they say otherwise; changes in a name come on top.
UniProt P20292: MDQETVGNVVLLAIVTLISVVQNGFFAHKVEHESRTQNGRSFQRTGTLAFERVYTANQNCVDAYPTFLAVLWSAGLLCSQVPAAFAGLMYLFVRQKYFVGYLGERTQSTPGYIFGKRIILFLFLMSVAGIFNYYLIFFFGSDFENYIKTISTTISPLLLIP

Biological target: human FLAP (Homo sapiens (Human), UniProt P20292)
Experiment: FLAP binding assay (HTRF format)
Experimental: The ability of the compounds of the present invention to treat a FLAP-mediated disease and/or disorder, or associated symptoms or complications thereof, was determined using the following procedures. Binding assay data represent the average value obtained from two different assay plates, with samples run in duplicate on each plate. Human whole blood assay data represent a single replicate on an assay plate using whole blood from at least one healthy donor.
Data are expressed as a HTRF ratio.

[1] = human FLAP wild type membranes, HTRF format, Table 6 (additional runs)
[2] = human FLAP-containing membranes, HTRF ligand 25 nM, 2 h, average of two plates, duplicates, read-out: FLAP Binding wild type HTRF Ki

5-(4-Cyclobutyl-2-fluoro-3-methoxyphenyl)pyridin-2-amine hydrochloride salt [Example 179]
Ki [1]: ~354 nM | Ki [2]: 750 nM

Nc1cnc(-c2ccc(C3CCC3)c(OCC(O)CNc3ncccn3)c2F)cn1 (racemic) [Example 56, racemic 1-(3-(5-Aminopyrazin-2-yl)-6-cyclobutyl-2-fluorophenoxy)-3-(pyrimidin-2-ylamino)propan-2-ol]
Ki [1]: 81.9 nM | Ki [2]: 82 nM

NC(=O)c1ccc(Oc2c(C3CCC3)ccc(-c3cnc(N)cn3)c2F)cc1 [Example 155, 4-[3-(5-Aminopyrazin-2-yl)-6-cyclobutyl-2-fluorophenoxy]benzamide]
Ki [1]: 4.9 nM
